In patent publication US9526737B2, “Oxysterols for activation of hedgehog signaling, osteoinduction, antiadipogenesis, and Wnt signaling” (THE REGENTS OF THE UNIVERSITY OF CALIFORNIA, priority 2007, dated 2016):

System: hedgehog signaling pathway
Assay: Hedgehog signaling pathway activation (8X-Gli reporter, Gli 1 and Patched Q-RT-PCR, cyclopamine inhibition)
Assay type: cell-based
Details: assessed by at least one of Gli reporter, Gli 1/Patched expression
Method: M2-10B4 bone marrow stromal cells were transfected with an 8XGli luciferase reporter or the empty vector (pGL3b). Cells were subsequently treated with control vehicle, 5 μM Oxy49, or 400 ng/ml recombinant human sonic hedgehog (Shh) as positive control. After 48 hours of treatments, reporter luciferase activity was measured and normalized to Renilla luciferase activity (See FIG. 14). […] M2-10B4 bone marrow stromal cells were transfected with an 8XGli luciferase reporter or the empty vector (pGL3b). Cells were subsequently treated with control vehicle, 5 μM Oxy34, or 400 ng/ml recombinant human sonic hedgehog (Shh) as positive control. After 48 hours of treatments, reporter luciferase activity was measured and normalized to Renilla luciferase activity (See FIG. 15). […] After 48 hours of treatments, mRNA was extracted from cells and analyzed by Q-RT-PCR for expression of hedgehog target genes Gli 1 and Patched (See FIGS. 16A and 16B). […] All of the oxysterols presented in FIG. 1 activated the hedgehog signaling pathway as assessed by at least one of the following methodologies: • 1. Luciferase reporter activity using a reporter construct with 8X-Gli binding sites • 2. Q-RT-PCR analysis of the induction of hedgehog pathway target gene expression Gli 1 and Patched • 3.

B1: BMP2: recombinant human BMP2 (R&D Systems) (protein, UniProt P12643 283-396, looked up)
Bone morphogenetic protein 2: QAKHKQRKRLKSSCKRHPLYVDFSDVGWNDWIVAPPGYHAFYCHGECPFPLADHLNSTNHAIVQTLVNSVNSKIPKACCVPTELSAISMLYLDENEKVVLKNYQDMVVEGCGCR
- Activation of the hedgehog signaling pathway: no evidence of hedgehog signaling being induced
